Reference: PMC11336141

By UniProt entry, the sequences of proteins in these tests, tags left out. Where a name states a change or a piece, a line headed by the entry shows the natural chain unless it says otherwise.
UniProt P35346: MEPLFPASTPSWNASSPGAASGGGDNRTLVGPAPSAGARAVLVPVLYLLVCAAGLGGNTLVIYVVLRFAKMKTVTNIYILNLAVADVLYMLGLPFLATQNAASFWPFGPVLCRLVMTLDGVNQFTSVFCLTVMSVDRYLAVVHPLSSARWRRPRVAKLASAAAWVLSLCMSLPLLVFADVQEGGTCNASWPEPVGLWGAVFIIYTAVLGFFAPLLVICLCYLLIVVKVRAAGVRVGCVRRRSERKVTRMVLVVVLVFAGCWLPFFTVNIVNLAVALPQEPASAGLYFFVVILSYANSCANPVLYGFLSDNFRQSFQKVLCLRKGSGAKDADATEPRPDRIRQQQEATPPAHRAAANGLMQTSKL
UniProt P30874: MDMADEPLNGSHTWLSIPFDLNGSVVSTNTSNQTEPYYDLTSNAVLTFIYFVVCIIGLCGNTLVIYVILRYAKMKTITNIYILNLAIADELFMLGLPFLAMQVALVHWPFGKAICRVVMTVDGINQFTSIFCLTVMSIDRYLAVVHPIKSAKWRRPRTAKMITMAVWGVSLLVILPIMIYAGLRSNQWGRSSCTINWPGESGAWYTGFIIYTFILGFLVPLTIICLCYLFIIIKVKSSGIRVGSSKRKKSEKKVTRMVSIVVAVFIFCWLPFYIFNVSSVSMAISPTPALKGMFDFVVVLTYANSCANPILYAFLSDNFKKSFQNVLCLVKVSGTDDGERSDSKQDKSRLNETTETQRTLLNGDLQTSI
UniProt P30872: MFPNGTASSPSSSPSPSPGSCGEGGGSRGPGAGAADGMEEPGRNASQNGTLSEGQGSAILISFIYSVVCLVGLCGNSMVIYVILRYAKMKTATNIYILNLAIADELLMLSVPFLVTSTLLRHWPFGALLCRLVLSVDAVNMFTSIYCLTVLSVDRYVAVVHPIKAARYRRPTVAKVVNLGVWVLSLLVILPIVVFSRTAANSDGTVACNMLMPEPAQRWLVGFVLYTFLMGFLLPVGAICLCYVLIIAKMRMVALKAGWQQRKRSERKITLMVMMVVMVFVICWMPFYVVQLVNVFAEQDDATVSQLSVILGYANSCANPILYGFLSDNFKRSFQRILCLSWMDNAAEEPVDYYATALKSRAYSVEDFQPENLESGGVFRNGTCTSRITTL
UniProt P32745: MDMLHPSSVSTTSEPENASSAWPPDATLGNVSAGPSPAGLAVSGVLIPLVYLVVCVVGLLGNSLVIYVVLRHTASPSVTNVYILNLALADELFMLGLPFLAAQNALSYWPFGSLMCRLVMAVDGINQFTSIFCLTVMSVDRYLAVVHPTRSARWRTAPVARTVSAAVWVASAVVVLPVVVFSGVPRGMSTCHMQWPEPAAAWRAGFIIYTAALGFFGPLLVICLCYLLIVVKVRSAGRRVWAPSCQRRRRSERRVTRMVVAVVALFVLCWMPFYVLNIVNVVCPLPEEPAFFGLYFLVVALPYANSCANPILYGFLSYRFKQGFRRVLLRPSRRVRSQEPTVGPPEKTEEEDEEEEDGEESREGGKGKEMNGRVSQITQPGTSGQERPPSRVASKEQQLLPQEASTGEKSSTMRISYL
UniProt P31391: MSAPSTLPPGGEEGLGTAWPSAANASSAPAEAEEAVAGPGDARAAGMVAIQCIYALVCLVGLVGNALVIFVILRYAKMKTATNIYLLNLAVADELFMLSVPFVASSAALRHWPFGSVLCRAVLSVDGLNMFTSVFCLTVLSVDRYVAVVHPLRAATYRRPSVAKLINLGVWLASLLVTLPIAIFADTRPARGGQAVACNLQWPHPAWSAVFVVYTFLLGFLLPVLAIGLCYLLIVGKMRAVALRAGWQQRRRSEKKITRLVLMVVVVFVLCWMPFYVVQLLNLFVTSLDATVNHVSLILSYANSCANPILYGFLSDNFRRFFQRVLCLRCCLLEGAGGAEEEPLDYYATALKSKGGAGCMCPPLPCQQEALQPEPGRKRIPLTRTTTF

Tests used:
[1] = Solubility in aqueous solutions (observation); conditions: comparison of des-glyco nG1, pG1 and venom fraction
human SSTR1-5 = assay: PRESTO-Tango β-arrestin recruitment assay, panel hSSTR1-5 (selectivity); assay type: cell-based; conditions: hSSTR1-5, β-arrestin recruitment
human SSTR5 = molecular target: T1, human SSTR5 (Homo sapiens, UniProt P35346); assay: PRESTO-Tango β-arrestin recruitment assay, hSSTR5; assay type: cell-based; conditions: HTLA cells
T1 construct: Tango cassette (PRESTO-Tango template of Kroeze et al. 2015); Bryan Roth (Addgene) Addgene kit # 1000000068; host or cells: HTLA cells
Description: (§1) HTLA cells were given by Prof.
(§2) The assay was done as described in ref. [12].

human SSTR2 = human SSTR2 (Homo sapiens, UniProt P30874); assay: PRESTO-Tango β-arrestin recruitment assay, hSSTR2; conditions: for activation of hSSTR2 in words: PRESTO-Tango, HTLA cells
human SSTR1 = molecular target: T2, human SSTR1 (Homo sapiens, UniProt P30872); assay: PRESTO-Tango β-arrestin recruitment assay, hSSTR1; assay type: cell-based; conditions: HTLA cells
T2 construct: Tango cassette (PRESTO-Tango template of Kroeze et al. 2015); Bryan Roth (Addgene) Addgene kit # 1000000068; host or cells: HTLA cells
Description: as §1, §2

human SSTR3 = molecular target: T3, human SSTR3 (Homo sapiens, UniProt P32745); assay: PRESTO-Tango β-arrestin recruitment assay, hSSTR3; assay type: cell-based; conditions: HTLA cells
T3 construct: Tango cassette (PRESTO-Tango template of Kroeze et al. 2015); Bryan Roth (Addgene) Addgene kit # 1000000068; host or cells: HTLA cells
Description: as §1, §2

human SSTR4 = molecular target: T4, human SSTR4 (Homo sapiens, UniProt P31391); assay: PRESTO-Tango β-arrestin recruitment assay, hSSTR4; assay type: cell-based; conditions: HTLA cells
T4 construct: Tango cassette (PRESTO-Tango template of Kroeze et al. 2015); Bryan Roth (Addgene) Addgene kit # 1000000068; host or cells: HTLA cells
Description: as §1, §2

**Q.** With CC(C)C[C@H](NC(=O)[C@H](CCCNC(=N)N)NC(=O)[C@H](CCC(N)=O)NC(=O)[C@H](CCC(=O)O)NC(=O)[C@@H]1CCCN1C(=O)[C@H](C)NC(=O)[C@@H]1C[C@@H](O)CN1C(=O)[C@@H](NC(=O)[C@@H](NC(=O)[C@H](CC(C)C)NC(=O)[C@H](CC(C)C)NC(=O)[C@@H](NC(=O)[C@H](C)NC(=O)[C@H](CC(=O)O)NC(=O)[C@H](CC(C)C)NC(=O)[C@H](CC(C)C)NC(=O)[C@@H](NC(=O)[C@H](CC(=O)O)NC(=O)[C@@H](NC(=O)[C@@H]1CCC(=O)N1)[C@@H](C)O)C(C)C)[C@@H](C)O)[C@@H](C)O)[C@@H](C)O)C(=O)N[C@@H](Cc1ccccc1)C(=O)N[C@H]1CSSC[C@@H](C(=O)N[C@@H](Cc2c[nH]c3ccccc23)C(=O)N2C[C@H](O)C[C@H]2C(=O)N[C@@H](CCCNC(=N)N)C(=O)N2C[C@H](O)C[C@H]2C(=O)N[C@@H](Cc2ccc(O)cc2)C(=O)N2CCC[C@H]2C(=O)N[C@@H](Cc2c[nH]c3ccccc23)C(N)=O)NC(=O)[C@H](CO)NC(=O)[C@H](CCCCN)NC(=O)[C@@H](Cc2c[nH]c3ccccc23)NC(=O)[C@H](Cc2ccccc2)NC1=O [des-glyco nG1] as the compound, how does the “solubility in aqueous solutions in words” value [1] read?
**A.** did not observe any obvious differences in the solubility

**Q.** What about the “agonism / selectivity in words” value (human SSTR1-5) of the same compound?
**A.** several orders of magnitude more potent at

**Q.** And the “agonism / selectivity in words” value (human SSTR1-5; listed as Des-glyco nG1)?
**A.** slightly lower potencies than the venom fraction while retaining its selectivity for the hSSTR2

**Q.** What about the “activation of SSTR5 in words” value (human SSTR5) of the same compound?
**A.** weak activation

**Q.** What about the “activation of hSSTR2 in words” value (human SSTR2) of the same compound?
**A.** only slightly less potent at activating the

**Q.** And the “activation of hSSTR2 in words” value (human SSTR2; listed as Des-glyco nG1)?
**A.** retains potent activation of hSSTR2

**Q.** What about the “Hill Slope” value (human SSTR2; Table S9) of the same compound?
**A.** 1.09 ± 0.11

**Q.** And the “Span ± S.E.M.” value (human SSTR2; Table S9)?
**A.** 97.20 ± 3.16

**Q.** What about the Emax (human SSTR2; read-out: Emax ± S.E.M., Table S9, relative to SS-14) of the same compound?
**A.** 97.1 ± 2.65%

**Q.** What about the “activation of SSTR1 in words” value (human SSTR1) of the same compound?
**A.** weak activation

**Q.** What about the “activation of SSTR3 in words” value (human SSTR3) of the same compound?
**A.** weak activation

**Q.** What about the “activation of SSTR4 in words” value (human SSTR4) of the same compound?
**A.** weak activation
